According to US9683217B2, “In vitro culture conditions for T-cell acute lymphoblastic leukemia/lymphoma” (THE UNIVERSITY OF MIAMI, priority 2013, dated 2017):

System: human T-ALL lymphoblasts
Test: Cytokine/growth factor subtraction and IGF1R blockade, resazurin-reduction cell growth assay
Format: cell-based
Settings: SCF, IGF-1, IL-2, IL-7 added alone or in combination, FIG. 3
Procedure: A resazurin-reduction cell growth assay was performed on (A-B) primary and (C) xenograft-expanded T-ALL. Cells were cultured and passaged as described in FIG. 1. Cytokines and growth factors were subtracted out of the complete media and cells were assayed for growth using a resazurin reduction assay. Data shown are a composite of passages 1 and 2. Significance: * p<0.05, ** p<0.01, and *** p<0.001.
Cell Titer Blue (Promega) was added to a co-culture, 5 μl/well for a 12-well plate and 1 μl/well for a 96-well plate, and allowed to incubate for 2-6 hours depending on the number and type of cells present in the well. Cultures were then analyzed using a Tecan GENios Flourometric plate reader. The plate reader was set to read from the bottom at 535 nm excitation and 590 nm emission wavelengths, at optimal gain with an integration time of 80 μs and a lag time of 0 μs. The plate was orbitally shaken in the machine for 5 sec prior to reading.
Studies were also conducted with human T-ALL primary cells (FIGS. 3A-3B) and human T-ALL cells that were previously expanded in immunodeficient NSG mice (FIG. 3C). SCF, IGF-1, IL-2, and IL-7 were either added alone or in combination, then cancer cell growth was measured. Results in FIG. 3 indicate that better growth was achieved when all four cytokines are added to the in vitro culture medium. […]

Which “importance of the supplemental cytokine for T-ALL growth” value does the source give for “IL-2: ligand for the IL-2 receptor; recombinant cytokine supplement” here?
Its value is “may improve growth of some tumors”.
